Assays:
Assay in all cases: cell-based or functional assay
[1] = molecular target: cynomolgus monkey GLP-1 receptor (GLP-1R) (cynomolgus monkey) (UniProt F8V479)
[2] = molecular target: cynomolgus monkey Glucagon receptor (GCGR) (cynomolgus monkey)
[3] = molecular target: hGIPR (human) (UniProt P48546)
[4] = molecular target: human GLP-1 receptor (GLP-1R) (human) (UniProt P43220)
[5] = molecular target: human Glucagon receptor (GCGR) (human) (UniProt P47871)
[6] = molecular target: rat GLP-1 receptor (GLP-1R) (rat) (UniProt P32301)
[7] = molecular target: rat Glucagon receptor (GCGR) (rat) (UniProt P30082)

Q: What does the source list for Exenatide (peptide)?
A: pEC50, cAMP accumulation (pEC50 (-log M)) [1]: 11.4; pEC50, cAMP accumulation (pEC50 (-log M)) [2]: < 7; pEC50, cAMP accumulation (pEC50 (-log M)) [3]: < 9; pEC50, cAMP accumulation (pEC50 (-log M)) [4]: 12.1; pEC50, cAMP accumulation (pEC50 (-log M)) [5]: 8.61; pEC50, cAMP accumulation (pEC50 (-log M)) [6]: 11.8; pEC50, cAMP accumulation (pEC50 (-log M)) [7]: < 7
